{"source": "patent US7998937B2", "about": "“Flavonoid compound having an antiviral activity” (Korea Research Institute of Bioscience and Biotechnology, priority 2005, dated 2011)", "tested_on": "Vero cells", "assay": "Cytotoxicity (CC50) in Vero cells", "conditions": "0.1-100 μg/mL, 48 hours"}
{"substance": "catechin", "values": [{"measurement": "CC50 (concentration required for 50% cytotoxicity)", "value": "> 100", "unit": "µg/mL"}]}
